Measurements: patent US20260285879A1, “CDK INHIBITOR AND CRYSTAL FORM OF PHARMACEUTICALLY ACCEPTABLE SALT THEREOF, AND USE THEREOF” (priority 2023, published 2026)
In brackets after ≈: the same amount, converted by molar mass. Structures can show the parent of a compound that is named as a salt.

Assay: Solubility comparison in water, SGF, FaSSIF, FeSSIF (HPLC, pH, XRPD of filter cakes)
Type: physicochemical
Details: for Solubility −0.5 h: 30 min
Method: 7. Preparation of Biological Media
Two samples were prepared in parallel for each medium. All samples were shaken at 200 rpm at 37° C. for 24 h. At 0.5 h, 2 h, and 24 h, appropriate amounts of the suspensions were taken and filtered. The obtained filtrates were analyzed by HPLC and their pH values were measured, and the filter cakes were analyzed by XRPD.

Row | SMILES | XRPD-24 h (FeSSIF, filter cake, 24 h) | Solubility 24 h (SGF, 37° C., 24 h, 5 mg/mL sample) | Solubility −0.5 h (FaSSIF, 37° C., 5 mg/mL sample) | Solubility −0.5 h (FeSSIF, 37° C., 5 mg/mL sample) | Solubility −0.5 h (Water, 37° C., 5 mg/mL sample)
1 | CC(=O)c1c(C)c2cnc(Nc3ccc4c(c3)OC[C@@H]3CN(C5CCN(C)CC5)CCN43)nc2n(C2CCCC2)c1=O [crystalline form B of hydrochloride monohydrate of compound ] | Unchanged | >5000 µg/mL |  |  | 
2 | CC(=O)c1c(C)c2cnc(Nc3ccc4c(c3)OC[C@@H]3CN(C5CCN(C)CC5)CCN43)nc2n(C2CCCC2)c1=O |  |  | 240 µg/mL (≈ 420 µM) | 1630 µg/mL (≈ 2850 µM) | 3320 µg/mL (≈ 5810 µM)
